Results on 1 compound are retold here after patent publication US6506878B1, “HMTF81 human 7-transmembrane receptor” (Smithkline Beecham Corporation, priority 1997, dated 2003).

The target of the assay is T1, HMTMF81 polypeptide (Homo sapiens, UniProt Q9Y271, E167G).
T1 construct: expressed in transfected cells
T1 sequence (Q9Y271 1-337 E167G): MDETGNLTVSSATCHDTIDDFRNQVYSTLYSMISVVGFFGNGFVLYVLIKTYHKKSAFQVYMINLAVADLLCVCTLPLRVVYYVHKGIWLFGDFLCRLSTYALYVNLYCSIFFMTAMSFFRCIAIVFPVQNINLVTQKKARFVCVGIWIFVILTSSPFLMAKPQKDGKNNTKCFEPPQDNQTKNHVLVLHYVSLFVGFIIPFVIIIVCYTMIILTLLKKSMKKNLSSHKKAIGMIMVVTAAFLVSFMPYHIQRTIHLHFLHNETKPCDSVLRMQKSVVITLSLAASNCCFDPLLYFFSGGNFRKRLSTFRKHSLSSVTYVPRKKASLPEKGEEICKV
The assay is described as follows: calcium mobilization in a HMTMF81 expressing cell line. The format is cell-based. The method, then:
Similarly, HEK 293 cells expressing recombinant receptors are evaluated for the stimulation or inhibition of cAMP production using standard cAMP quantitation assays.
In general terms: A change in cytosolic calcium serves as a functional read-out for many receptors and channels.

On to `CCCCC/C=C/C/C=C/C=C\C=C/[C@@H](SC[C@H](N)C(=O)NCC(=O)O)[C@@H](O)CCCC(=O)O` [LTD4, (5S, 6R)-6-S-cysteinylglycine-5-hydroxy-(7Z, 9Z, 11E, 14E)-eicosatetraenoic acid], for which the calcium mobilization response result is recorded as “induce calcium mobilization responses”.
